The labels stand for the following.
B1: Sororin (Homo sapiens), Q96FF9 (parent)
chain: MSGRRTRSGGAAQRSGPRAPSPTKPLRRSQRKSGSELPSILPEIWPKTPSAAAVRKPIVLKRIVAHAVEVPAVQSPRRSPRISFFLEKENEPPGRELTKEDLFKTHSVPATPTSTPVPNPEAESSSKEGELDARDLEMSKKVRRSYSRLETLGSASTSTPGRRSCFGFEGLLGAEDLSGVSPVVCSKLTEVPRVCAKPWAPDMTLPGISPPPEKQKRKKKKMPEILKTELDEWAAAMNAEFEAAEQFDLLVE
partner: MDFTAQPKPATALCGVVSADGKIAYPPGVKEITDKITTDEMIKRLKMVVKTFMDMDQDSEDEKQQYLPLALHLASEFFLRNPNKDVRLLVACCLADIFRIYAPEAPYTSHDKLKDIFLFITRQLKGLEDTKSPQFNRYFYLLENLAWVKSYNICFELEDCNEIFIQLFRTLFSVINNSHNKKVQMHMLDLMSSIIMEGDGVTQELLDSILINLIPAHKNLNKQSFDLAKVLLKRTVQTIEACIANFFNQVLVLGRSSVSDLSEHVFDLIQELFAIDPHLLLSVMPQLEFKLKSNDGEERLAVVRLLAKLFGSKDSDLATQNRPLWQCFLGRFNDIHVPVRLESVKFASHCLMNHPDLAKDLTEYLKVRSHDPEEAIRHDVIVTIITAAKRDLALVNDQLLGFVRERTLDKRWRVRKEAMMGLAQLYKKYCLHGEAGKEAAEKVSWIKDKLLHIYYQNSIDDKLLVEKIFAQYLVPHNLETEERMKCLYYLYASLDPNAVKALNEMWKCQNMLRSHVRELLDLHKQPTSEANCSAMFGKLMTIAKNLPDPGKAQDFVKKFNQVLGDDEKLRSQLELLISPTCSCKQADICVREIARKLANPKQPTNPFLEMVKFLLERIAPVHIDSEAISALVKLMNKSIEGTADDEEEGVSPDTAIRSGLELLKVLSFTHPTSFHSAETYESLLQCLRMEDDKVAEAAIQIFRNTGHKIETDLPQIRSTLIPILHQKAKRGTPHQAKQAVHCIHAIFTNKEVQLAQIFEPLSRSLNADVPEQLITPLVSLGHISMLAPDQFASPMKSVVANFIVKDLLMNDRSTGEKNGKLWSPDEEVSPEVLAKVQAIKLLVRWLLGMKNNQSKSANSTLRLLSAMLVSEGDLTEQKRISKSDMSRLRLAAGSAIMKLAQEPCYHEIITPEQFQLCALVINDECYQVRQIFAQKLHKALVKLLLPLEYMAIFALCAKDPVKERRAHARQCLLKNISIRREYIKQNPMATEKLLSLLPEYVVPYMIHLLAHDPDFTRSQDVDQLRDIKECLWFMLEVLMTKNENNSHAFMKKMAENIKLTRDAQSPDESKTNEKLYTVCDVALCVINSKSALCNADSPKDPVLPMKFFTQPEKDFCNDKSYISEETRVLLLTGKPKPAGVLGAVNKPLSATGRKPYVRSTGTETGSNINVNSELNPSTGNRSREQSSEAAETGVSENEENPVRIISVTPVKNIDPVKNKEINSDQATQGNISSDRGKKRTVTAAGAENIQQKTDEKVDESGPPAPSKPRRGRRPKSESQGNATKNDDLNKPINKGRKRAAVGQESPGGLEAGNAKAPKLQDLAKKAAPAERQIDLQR

We go through one variant from IntAct's records for PubMed 21111234.

The variants in this test derive from B1. The settings on record: with pds5a_human PDS5A.
On to F166A;F168A, for which the “effect of a mutation on the interaction” value is on record as “decreasing interaction”.
